# Measured values published in PubChem BioAssay AID588852 (The Scripps Research Institute Molecular Screening Center, 2011).
# Chains of the proteins cited; added tags and fusions are not shown.
# UniProt P11229, whole entry: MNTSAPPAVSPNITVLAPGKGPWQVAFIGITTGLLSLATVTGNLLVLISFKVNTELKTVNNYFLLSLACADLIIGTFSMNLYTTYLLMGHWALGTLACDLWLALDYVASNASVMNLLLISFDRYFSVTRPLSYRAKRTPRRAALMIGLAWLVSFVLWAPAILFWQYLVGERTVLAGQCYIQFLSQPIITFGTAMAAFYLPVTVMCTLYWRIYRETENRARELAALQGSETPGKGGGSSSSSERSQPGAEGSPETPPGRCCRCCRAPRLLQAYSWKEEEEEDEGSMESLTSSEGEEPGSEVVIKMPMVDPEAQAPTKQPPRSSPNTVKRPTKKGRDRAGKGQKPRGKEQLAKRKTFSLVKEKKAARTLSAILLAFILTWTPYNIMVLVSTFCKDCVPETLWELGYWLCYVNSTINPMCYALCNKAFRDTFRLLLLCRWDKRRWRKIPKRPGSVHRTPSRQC
# Only a part is listed here, and it is no random draw. Some of these compounds have results that are not shown, active ones among them. The source made the active and inactive calls.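 The calls were made as follows: active = percent inhibition above its own plate's cutoff, namely the mean of that plate's compound wells plus 3 SD; inactive = the rest.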
# Molecular target: Muscarinic acetylcholine receptor M1 (Homo sapiens) (UniProt P11229)
# Test: CHRM1 blockers of acetylcholine calcium response – CHO-K1 cells, Fluo-8 calcium fluorescence, 1536-well, primary screen (AID 588852);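 also: peak over basal fluorescence ratio during 140 s after agonist addition; 0% = ACh EC80 plus DMSO and 100% = DMSO alone without agonist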
# Settings: CHO-K1 hM1, Fluo-8 calcium fluorescence, ACh EC80 antagonist; at 3 µM; stronger effect = higher value
row,Compound,inhibition
1,O=C(NCC1(N2CCCCC2)CCCCC1)c1cccc(Cl)c1,inactive: -23.3%
2,COc1cccc(C(=O)NCC2(N3CCCCC3)CCCCC2)c1,inactive: -2.68%
3,COc1ccc(Cl)cc1C(=O)NCC1(N(C)C)CCCCC1,inactive: 0.75%
4,COc1cc(C(=O)NCC2(N(C)C)CCCCC2)c([N+](=O)[O-])cc1OC,inactive: -15.5%
5,CN(C)C1(CNC(=O)c2ccc(Br)cc2)CCCCC1,inactive: -13.4%
6,CC(C)Oc1ccc(C(=O)NCC2(N(C)C)CCCCC2)cc1,inactive: -3.39%
7,CN(C)c1cccc(C(=O)NCC2(N(C)C)CCCCC2)c1,inactive: 0.12%
8,COc1ccc(Br)c(C(=O)NCC2(N3CCCCC3)CCCCC2)c1,inactive: -4.33%
9,Cc1ccc(C(=O)NCC2(N3CCCCC3)CCCCC2)cc1,inactive: -11.5%
10,COc1cc(SC)ccc1C(=O)NCC1(N(C)C)CCCCC1,inactive: -16.4%
11,CC(C)N1C(=O)CC2(CCN(CCOC(=O)C(O)(c3ccccc3)c3ccccc3)CC2)C1=O,inactive: -26.8%
12,O=C(NCC1(N2CCCCC2)CCCCC1)c1cc([N+](=O)[O-])ccc1Cl,inactive: -5.81%
13,COc1ccc(C(=O)NCC2(N(C)C)CCCCC2)cc1,inactive: -9.23%
14,Cc1cc(C(=O)NCC2(N3CCCCC3)CCCCC2)ccc1[N+](=O)[O-],inactive: -4.39%
15,O=C(NCC1(N2CCCCC2)CCCCC1)c1cccc(Br)c1,inactive: -11.8%
16,O=C(NCC1(N2CCCCC2)CCCCC1)c1cc(F)c(F)cc1Cl,inactive: 7.21%
17,Cc1ccccc1C(=O)NCC1(N2CCCCC2)CCCCC1,inactive: -6.32%
18,CN(C)c1ccc(C(=O)NCC2(N(C)C)CCCCC2)cc1,inactive: -7.47%
